Source: article PMC6589827 (Biochemistry, 2019)

Amino acid sequences for entries named in this document (tags omitted). A change or cut given only in a name is not applied to a line headed by its entry.
UniProt P0ABQ4: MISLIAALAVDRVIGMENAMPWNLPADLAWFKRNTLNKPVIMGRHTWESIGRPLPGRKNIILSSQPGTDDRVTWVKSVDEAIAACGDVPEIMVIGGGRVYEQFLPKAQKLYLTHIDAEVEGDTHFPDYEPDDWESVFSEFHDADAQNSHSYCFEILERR
UniProt P00383: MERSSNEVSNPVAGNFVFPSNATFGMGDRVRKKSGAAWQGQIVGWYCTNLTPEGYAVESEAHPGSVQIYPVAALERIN

Key:
apo-EcDHFR = apo-EcDHFR (Escherichia coli, UniProt P0ABQ4); assay: ITC, NADP+ binding to apo-EcDHFR; design: species or system E. coli; conditions: read-out: Kd of NADP^+ binding to apo-EcDHFR, buffer alone, 25 °C, pH 7.0
R67 DHFR = R67 DHFR (Escherichia coli, UniProt P00383); assay: ITC, NADP+ binding to apo-R67 DHFR; conditions: read-out: Kd of NADP^+ binding to apo-R67 DHFR, buffer, 25 °C, pH 7.0

## oxidized nicotinamide adenine dinucleotide phosphate [NADP^+, reference compound]
apo-EcDHFR
  Kd: 5 ± 0.4 µM
R67 DHFR
  Kd: 98 ± 9 µM
